According to US10188613B2, “Exo-S-mecamylamine formulation and use in treatment” (UNIVERSITY OF SOUTH FLORIDA, priority 1998, dated 2019):
Structures can show the parent of a compound that is named as a salt.

Chains of the proteins cited; added tags and fusions are not shown. Residues count along the entry.
UniProt P30926, 22-498: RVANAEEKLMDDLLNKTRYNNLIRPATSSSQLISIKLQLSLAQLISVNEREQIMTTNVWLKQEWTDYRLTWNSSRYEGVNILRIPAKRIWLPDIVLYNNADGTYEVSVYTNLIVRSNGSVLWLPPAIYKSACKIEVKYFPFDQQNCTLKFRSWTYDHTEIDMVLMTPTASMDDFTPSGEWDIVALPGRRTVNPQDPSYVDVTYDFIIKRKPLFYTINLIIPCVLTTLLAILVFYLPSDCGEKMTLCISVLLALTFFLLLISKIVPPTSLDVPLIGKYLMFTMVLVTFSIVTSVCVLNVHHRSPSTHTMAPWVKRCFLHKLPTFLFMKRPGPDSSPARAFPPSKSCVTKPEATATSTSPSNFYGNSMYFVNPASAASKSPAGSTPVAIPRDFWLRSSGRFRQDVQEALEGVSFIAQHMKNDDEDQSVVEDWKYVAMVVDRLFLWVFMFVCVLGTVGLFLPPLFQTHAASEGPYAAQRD
UniProt P32297, 32-505: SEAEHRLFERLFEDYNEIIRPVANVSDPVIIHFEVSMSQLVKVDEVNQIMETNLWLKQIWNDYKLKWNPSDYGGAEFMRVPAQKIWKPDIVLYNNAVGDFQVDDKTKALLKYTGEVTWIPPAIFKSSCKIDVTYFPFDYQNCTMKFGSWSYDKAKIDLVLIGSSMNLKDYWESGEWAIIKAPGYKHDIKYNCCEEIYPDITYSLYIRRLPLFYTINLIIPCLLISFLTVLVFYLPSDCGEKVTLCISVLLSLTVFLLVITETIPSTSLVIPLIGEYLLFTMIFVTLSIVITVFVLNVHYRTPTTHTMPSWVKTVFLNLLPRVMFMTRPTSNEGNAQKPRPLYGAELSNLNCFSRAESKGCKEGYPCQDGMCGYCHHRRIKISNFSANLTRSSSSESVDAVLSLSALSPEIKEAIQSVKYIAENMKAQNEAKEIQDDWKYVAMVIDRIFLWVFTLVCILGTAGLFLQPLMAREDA

Target: T1, human α3β4 receptors (Homo sapiens, UniProt P30926+P32297)
T1 construct: expressed in transfected cells; host or cells: Xenopus laevis oocytes, cRNA injection
Experiment: Two-electrode voltage clamp, Xenopus oocytes expressing α3β4 receptors (Example 4)
Format: cell-based
Settings: control ACh 100 μM, -50 mV

**Q.** With CN[C@@]1(C)[C@@H]2CC[C@@H](C2)C1(C)C [exo-S-mecamylamine, exo-S-N,2,3,3-tetramethyl-bicycl-o-[2.1.1]heptan-2-amine hydrochloride] as the compound, how does the “IC50 rank among receptor subtypes” value read?
**A.** Its value is “most potent at inhibiting α3β4 receptors”.
